By UniProt entry, the sequences of proteins in these tests, tags left out. Where a name states a change or a piece, a line headed by the entry shows the natural chain unless it says otherwise.
UniProt P30994: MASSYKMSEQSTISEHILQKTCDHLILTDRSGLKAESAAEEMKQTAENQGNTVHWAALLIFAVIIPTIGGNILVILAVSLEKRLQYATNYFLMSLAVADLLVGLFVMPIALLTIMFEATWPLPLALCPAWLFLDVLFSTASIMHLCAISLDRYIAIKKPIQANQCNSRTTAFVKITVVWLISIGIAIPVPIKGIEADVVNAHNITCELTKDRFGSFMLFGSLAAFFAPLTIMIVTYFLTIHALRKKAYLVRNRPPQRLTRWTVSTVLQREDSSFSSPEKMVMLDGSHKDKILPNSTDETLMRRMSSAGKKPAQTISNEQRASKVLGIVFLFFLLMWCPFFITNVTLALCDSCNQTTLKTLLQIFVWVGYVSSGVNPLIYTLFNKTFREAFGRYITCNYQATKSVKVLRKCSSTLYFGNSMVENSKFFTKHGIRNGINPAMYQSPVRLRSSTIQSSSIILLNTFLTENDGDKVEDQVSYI
UniProt P08909: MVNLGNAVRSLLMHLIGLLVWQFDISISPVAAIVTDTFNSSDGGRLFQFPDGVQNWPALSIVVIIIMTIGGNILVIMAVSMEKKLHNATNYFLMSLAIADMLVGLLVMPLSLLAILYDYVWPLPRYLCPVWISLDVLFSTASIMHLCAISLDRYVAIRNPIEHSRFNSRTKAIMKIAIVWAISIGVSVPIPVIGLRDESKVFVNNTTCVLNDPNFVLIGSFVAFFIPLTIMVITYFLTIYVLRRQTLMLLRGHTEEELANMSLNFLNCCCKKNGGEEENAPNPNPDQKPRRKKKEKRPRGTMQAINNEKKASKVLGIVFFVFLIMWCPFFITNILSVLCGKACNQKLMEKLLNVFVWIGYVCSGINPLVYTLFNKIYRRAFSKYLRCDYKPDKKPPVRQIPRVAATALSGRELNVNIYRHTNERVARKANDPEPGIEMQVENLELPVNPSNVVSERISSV
UniProt P14842: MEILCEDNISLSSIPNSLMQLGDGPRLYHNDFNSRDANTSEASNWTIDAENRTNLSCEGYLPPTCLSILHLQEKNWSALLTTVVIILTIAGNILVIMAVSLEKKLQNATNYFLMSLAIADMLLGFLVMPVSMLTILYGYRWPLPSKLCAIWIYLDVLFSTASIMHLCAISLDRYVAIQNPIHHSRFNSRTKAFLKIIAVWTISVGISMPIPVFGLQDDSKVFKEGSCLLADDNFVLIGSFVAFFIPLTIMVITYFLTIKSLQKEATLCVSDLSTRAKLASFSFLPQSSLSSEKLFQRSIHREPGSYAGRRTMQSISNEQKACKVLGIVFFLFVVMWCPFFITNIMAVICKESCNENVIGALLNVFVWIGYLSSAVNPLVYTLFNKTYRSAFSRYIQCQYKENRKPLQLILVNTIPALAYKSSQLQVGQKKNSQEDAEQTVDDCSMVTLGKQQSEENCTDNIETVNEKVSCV

According to ChEMBL document CHEMBL1123393, “5-HT1 and 5-HT2 binding characteristics of 1-(2,5-dimethoxy-4-bromophenyl)-2-aminopropane analogues” (J Med Chem, 1986):

Molecular target: Serotonin 2 (5-HT2) receptor (Rattus norvegicus, UniProt P30994+P08909+P14842)
Experiment: Displacement of [3H]ketanserin from rat prefrontal cortex 5-hydroxytryptamine 2 receptor
Assay type: tissue-based

COc1ccccc1CC(C)N (racemic)
Ki: 8.13 µM

COc1cc(CC(C)N)c(OC)cc1Br (racemic) [BROLAMFETAMINE]
Ki: 0.063 µM
